Measured values from PubChem BioAssay AID624126 (The Scripps Research Institute Molecular Screening Center, 2012).
Only a part is listed here, and it is no random draw. Calls of active or inactive are those of the source.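 The calls were made as follows: active = activation above its plate's cutoff, the mean activation of sample wells plus 3 SD; inactive = the rest.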

By UniProt entry, the sequences of proteins in these tests, tags left out.
UniProt P08173, whole entry, looked up: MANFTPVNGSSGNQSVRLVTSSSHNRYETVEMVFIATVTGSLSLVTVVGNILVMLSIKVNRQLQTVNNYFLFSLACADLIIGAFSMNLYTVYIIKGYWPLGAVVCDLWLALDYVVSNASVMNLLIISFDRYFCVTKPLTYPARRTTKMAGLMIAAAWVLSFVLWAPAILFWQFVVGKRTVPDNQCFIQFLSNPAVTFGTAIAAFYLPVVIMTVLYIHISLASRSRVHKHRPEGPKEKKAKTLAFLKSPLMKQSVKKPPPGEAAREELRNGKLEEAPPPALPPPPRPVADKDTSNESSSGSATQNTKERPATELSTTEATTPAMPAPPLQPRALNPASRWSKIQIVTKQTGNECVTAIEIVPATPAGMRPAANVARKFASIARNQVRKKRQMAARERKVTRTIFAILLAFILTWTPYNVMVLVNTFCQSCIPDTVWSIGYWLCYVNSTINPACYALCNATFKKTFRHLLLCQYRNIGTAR

Target: Muscarinic acetylcholine receptor M4 (Homo sapiens) (UniProt P08173)
Experiment: human M4 muscarinic receptor positive allosteric modulators, primary screen, CHO-K1 cells, Fluo-8 calcium fluorescence (AID 624126)
Details: CHO-K1 hM4/Gqi5, Fluo-8 calcium fluorescence, ACh EC20; at 3 µM; hits give high values; 0% = ACh EC20, 100% = maximal ACh

Row | Compound | activation
1 | Nc1ccc([As](=O)(O)c2ccc([N+](=O)[O-])cc2)cc1 | inactive: 3.36%
2 | O=C(OC1CN2CCC1CC2)c1cccc(Cl)c1 (centres undefined) | inactive: -29.1%
3 | CC(C)C(=O)NC(Sc1ccccc1)C(Cl)(Cl)Cl (centres undefined) | inactive: 0.69%
4 | O=P(Nc1nccs1)(c1ccccc1)c1ccccc1 | inactive: 0.97%
5 | c1nnnn1CCn1cnnn1 | inactive: 7.12%
6 | CCOc1ccc(C2=NCC(CBr)S2)cc1 (centres undefined) | inactive: -0.99%
7 | O=P1(Nc2nc3ccc(Cl)cc3s2)COc2ccccc2O1 (centres undefined) | inactive: 2.89%
8 | CCc1cc(O)c([N+](=O)[O-])c(C)c1[N+](=O)[O-] | inactive: 1.72%
9 | CC(C)(C)C(=O)NC(Sc1ccccc1)C(Cl)(Cl)Cl (centres undefined) | inactive: -6.58%
10 | COC(=O)C1(C)COP(=O)(NCc2ccccc2)OC1 (centres undefined) | inactive: -2.47%
11 | CC1C(=O)OC2CCN3CC=C(COC(=O)C(C)(O)C1(C)O)C23 (centres undefined) | inactive: 6.92%
12 | CC(=O)c1ccc(N2CC2c2ccncc2)cc1 (centres undefined) | inactive: 2.7%
13 | N#C/C(=C\c1ccc(N(CCBr)CCBr)cc1)C(N)=O | inactive: -2.08%
14 | C[C@H]1OP(=O)(Oc2ccccc2)C[C@@H]2O[C@@H]21 (some centres undefined) | inactive: 18.8%
15 | C[C@@H]1C=CCP(=O)(Oc2ccccc2)O1 (some centres undefined) | inactive: 5.95%
16 | Cc1ccccc1CN(C)C(=O)COC(=O)C(O)(c1ccccc1)c1ccccc1 | inactive: 4.71%
17 | CCN(CC)CCOC(=O)C(O)(c1ccccc1)c1ccccc1 | inactive: -18.7%
18 | CC(=O)Nc1ccc(Oc2c([N+](=O)[O-])cc([N+](=O)[O-])cc2[N+](=O)[O-])cc1 | inactive: 3.99%
19 | CC(=O)Nc1ccc([As](=O)(O)O)c(O)c1 | inactive: 7.9%
20 | CCNC(=S)/N=C(\N)N[N+](=O)[O-] | inactive: -4.45%
21 | O=C(NC1CCS(=O)(=O)C1)NP(=S)(Oc1ccccc1)Oc1ccccc1 (centres undefined) | inactive: -4.09%

Row | Compound | activation
22 | C=C1C(=O)OC2CCN3CC=C(COC(=O)C(C)(O)C4(CO4)C1C)C23 (centres undefined) | inactive: -0.29%
23 | Cc1ccc(NP(=O)(Oc2cccc(C)c2)Oc2cccc(C)c2)nc1 | inactive: 3.71%
24 | c1ccc(-c2nn[nH]n2)c(-c2nn[nH]n2)c1 | inactive: 11.3%
25 | O=P1(N(CCCl)CCCl)OCCC2CCCCN21 (centres undefined) | inactive: 1.34%
26 | CC1C(=O)OC2CCN3CC4OC4(COC(=O)C(C)(O)C1(C)O)C23 (centres undefined) | inactive: 1.46%
27 | Cc1ccc(OP(=O)(Nc2ccccn2)Oc2ccc(C)cc2)cc1 | inactive: -2.19%
28 | CC(=O)NC(SC(=S)N(CC(C)C)CC(C)C)C(Cl)(Cl)Cl (centres undefined) | inactive: -2.62%
29 | COC(=O)c1cc2c(s1)N=C(c1ccccc1)N(C)P2(=O)N1CCOCC1 (centres undefined) | inactive: 1.3%
30 | CCC(=O)N1C2C3N(C(=O)CC)C1C1N(C(=O)CC)C(C(N1C(=O)CC)N3C(=O)CC)N2C(=O)CC | inactive: 10.2%
31 | Clc1ccc(N2CCN(Cc3c[nH]c4ncccc34)CC2)cc1 | inactive: -3.47%
32 | O=C(OC1CN2CCC1CC2)c1ccccc1 (centres undefined) | inactive: -19.6%
33 | CCN(C(=O)COC(=O)C(O)(c1ccccc1)c1ccccc1)c1c(N)n(Cc2ccccc2)c(=O)[nH]c1=O | inactive: 2.42%
34 | O=c1c2cc([N+](=O)[O-])ccc2[nH]c2c([N+](=O)[O-])cc([N+](=O)[O-])cc12 | inactive: -1.67%
35 | CN(C)C(=O)Oc1noc2ccccc12 | inactive: -0.84%
36 | CC(NC(=O)COC(=O)C(O)(c1ccccc1)c1ccccc1)c1ccccc1 (centres undefined) | inactive: -6.01%
37 | Cc1ccccc1OP(=O)(Nc1ccccn1)Oc1ccccc1C | inactive: -15.4%
38 | CCCC1OP(N)(=O)OCC1CC (centres undefined) | inactive: -1.89%
39 | CC(=O)O[C@]1(C)C(=O)OC/C2=C/CN(C)CCC(OC(=O)[C@@](O)(C(C)O)C[C@H]1C)C2=O (some centres undefined) | inactive: 2.88%
40 | CC(=O)Nc1ccc([As](=O)(O)O)cc1 | inactive: -1.28%
41 | O=C(O)c1ccccc1[As](=O)(O)O | inactive: -4.44%
42 | O=P(Nc1nc2ccc(Cl)cc2s1)(c1ccccc1)c1ccccc1 | inactive: -14.2%

Row | Compound | activation
43 | CN(C)P(=O)(N(C)C)n1c(Nc2ccccc2)nnc1-c1ccccc1 | inactive: 1.84%
44 | Cc1ccc(NP(=O)(Oc2ccccc2F)Oc2ccccc2F)nc1 | inactive: -20%
45 | CN(C(=O)Cc1ccc(Cl)c(Cl)c1)[C@H]1CCCC[C@@H]1N1CCCC1 | inactive: -7.79%
46 | Cc1cc(SC(NC(=O)c2ccc(F)cc2)C(Cl)(Cl)Cl)ncn1 (centres undefined) | inactive: -3.3%
47 | CCOP(=O)(Nc1ccccc1)OCC | inactive: -2.18%
48 | CCN(N=Nc1nonc1N)c1nonc1N | inactive: -5.83%
49 | Nc1cccc2ccc([As](=O)(O)O)cc12 | inactive: -11.5%
50 | NC(=O)c1cc([N+](=O)[O-])cc([N+](=O)[O-])c1N | inactive: 2.41%
51 | Cc1ccc(N/C(=N/P(=O)(N2CCOCC2)N2CCOCC2)N2CCOCC2)cc1 | inactive: 7.2%
52 | CN(C(=O)Cc1ccc(Cl)c(Cl)c1)[C@H]1CCCC[C@H]1N1CCCC1 | inactive: -4.81%
53 | Cc1ccc(OP(=O)(Nc2nccs2)Oc2ccc(C)cc2)cc1 | inactive: 7.43%
54 | COc1ccccc1OP(=O)(Nc1ccc(C)cn1)Oc1ccccc1OC | inactive: 0.32%
55 | CC(C)[C@H]1C(=O)O[C@@H]2CCN3CC=C(COC(=O)[C@](C)(O)[C@]1(C)O)[C@H]23 | inactive: -7.95%
56 | CN1CCCC(OC(=O)C(c2ccccc2)c2ccccc2)C1 (centres undefined) | inactive: -15.1%
57 | Clc1ccc(Cl)c(NC2=NCC(CBr)S2)c1 (centres undefined) | inactive: 7.51%
58 | Nc1cc(N)c2nonc2c1[N+](=O)[O-] | inactive: -12.6%
59 | CC(C)CC(=O)NC(Sc1ccc(Cl)cc1)C(Cl)(Cl)Cl (centres undefined) | inactive: -2.85%
60 | O=C(NC(Sc1ccncn1)C(Cl)(Cl)Cl)c1ccccc1 (centres undefined) | inactive: 0.17%
61 | Oc1ccccc1CNc1ccccn1 | inactive: 8.26%
62 | O=[N+]([O-])C1C(O)C(O)C([N+](=O)[O-])C(O)C1O (centres undefined) | inactive: 3.24%
63 | COc1ccc(C2=NCC(CBr)S2)cc1 (centres undefined) | inactive: 0.2%

Row | Compound | activation
64 | O=[N+]([O-])c1cccc2n[nH]nc12 | inactive: 8.22%
65 | CC(=O)N1C2C3N(C(C)=O)C1C1N(C(C)=O)C(C(N1C(C)=O)N3C(C)=O)N2C(C)=O | inactive: -1%
66 | CCc1nc2c(n1)c1c(non1O)c1c2no[n+]1[O-] | inactive: -3.09%
67 | O=[N+]([O-])c1cc([N+](=O)[O-])c(CCNc2ccccc2)c([N+](=O)[O-])c1 | inactive: 0.76%
68 | Cc1ccc(NP(=O)(Oc2ccccc2)Oc2ccccc2)nc1 | inactive: 0.75%
69 | C[N+]1=C2C=CC=CC=C2SC12C([N+](=O)[O-])=CC([N+](=O)[O-])=C[C-]2[N+](=O)[O-] (centres undefined) | inactive: -1.99%
70 | Nc1ccc([As](=O)(O)c2ccc(N)cc2)cc1 | inactive: 1.02%
71 | CCN(/C(=N/P(=O)(N1CCOCC1)N1CCOCC1)N1CCOCC1)c1ccc(OC)cc1 | inactive: 13.2%
72 | CN(C)C(=O)OCCc1n(C)cc[n+]1C | inactive: -2.14%
73 | CC(C)c1nc(Nc2ccccc2)n(P(=O)(N(C)C)N(C)C)n1 | inactive: 6.51%
74 | CC(C)=N/N=C(\N)N[N+](=O)[O-] | inactive: 4.08%
75 | CC1CCN(C(=O)Oc2c(Cl)cc(Cl)c3cccnc23)CC1 | inactive: 2.49%
76 | c1cc(-c2nn[nH]n2)ccc1-c1nn[nH]n1 | inactive: 4.72%
77 | O=P1(N(CCCl)CCCl)OCCCS1 (centres undefined) | inactive: 7.66%
78 | O=C(Nc1cc([As](=O)(O)O)ccc1O)c1ccccc1 | inactive: 4.46%
79 | CC(C)(C)C(=O)NC(Sc1ccncn1)C(Cl)(Cl)Cl (centres undefined) | inactive: 33.9%
80 | O=[N+]([O-])c1ncn(CCn2ncnc2[N+](=O)[O-])n1 | inactive: 3.11%
81 | COC(=O)C1(C)COP(=O)(Nc2ccccc2)OC1 (centres undefined) | inactive: 2.9%
82 | O=[N+]([O-])c1cccc(NC2=NCC(CBr)S2)c1 (centres undefined) | inactive: -0.9%
83 | O=C(O)CNc1ccc([As](=O)(O)O)cc1 | inactive: -0.15%
84 | C/C=C1/C[C@@H](C)[C@](O)(CO)C(=O)OCC2=CCN3CC[C@@H](OC1=O)[C@@H]23 | inactive: 0.53%
